{"source": "patent US20160263110A1", "about": "(priority 2013, published 2016)", "origin": "cited, not measured here", "system": "ALS patients", "conditions": "humans; cited from earlier work", "note": "Entries after “also recorded” stand apart in the source; their conditions may differ.", "data": [{"smiles": "Nc1nc2ccc(OC(F)(F)F)cc2s1", "note": "[riluzole, 6-(trifluoromethoxy)benzothiazol-2-amine]", "values": [{"measurement": "effect on survival in ALS", "result": "slight prolongation of survival; also recorded: delays death by only few months; also recorded: modest effect on survival"}]}]}
